The values below come from patent publication US20100041596A1 (published 2010).

The target in the assay is T1, etanercept (UniProt P20333 23-257, limits assumed).
T1 construct: extracellular domain; Bought drug; also called Enbrel; TNFR II immunoglobulin Fc fusion protein; not shown: immunoglobulin Fc
T1 sequence (looked up): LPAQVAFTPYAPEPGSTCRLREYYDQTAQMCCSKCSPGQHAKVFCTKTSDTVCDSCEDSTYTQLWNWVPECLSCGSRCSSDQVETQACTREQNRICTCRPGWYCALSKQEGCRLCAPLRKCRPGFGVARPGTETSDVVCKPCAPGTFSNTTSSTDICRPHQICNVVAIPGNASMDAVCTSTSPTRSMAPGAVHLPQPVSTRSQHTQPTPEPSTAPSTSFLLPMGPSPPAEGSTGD
The assay is described as follows: immunoprecipitation and Western blot of mixed proteins.

B1: P80 PLAD-GST fusion protein (other)
chain: MSPILGYWKIKGLVQPTRLLLEYLEEKYEEHLYERDEGDKWRNKKFELGLEFPNLPYYIDGDVKLTQSMAIIRYIADKHNMLGGCPKERAEISMLEGAVLDIRYGVSRIAYSKDFETLKVDFLSKLPEMLKMFEDRLCHKTYLNGDHVTHPDFMLYDALDVVLYMDPMCLDAFPKLVCFKKRIEAIPQIDKYLKSSKYIAWPLQGWQATFGGGDHPPKSDLVPRGSPEFYAPEPGSTCRLREYYDQTAQMCCSKCSPGQHAKVFCTKTSDTVCDEFPGRLERPHRD
notes: made in bacteria, 33 kD; also called P80 PLAD protein; P80-PLAD-GST protein
As to B1, the binding result is “binds”.

B2: GST-only protein (other, UniProt P08515 1-218, looked up)
chain: MSPILGYWKIKGLVQPTRLLLEYLEEKYEEHLYERDEGDKWRNKKFELGLEFPNLPYYIDGDVKLTQSMAIIRYIADKHNMLGGCPKERAEISMLEGAVLDIRYGVSRIAYSKDFETLKVDFLSKLPEMLKMFEDRLCHKTYLNGDHVTHPDFMLYDALDVVLYMDPMCLDAFPKLVCFKKRIEAIPQIDKYLKSSKYIAWPLQGWQATFGGGDHPPK
notes: Control; also called GST alone protein
Take B2: the binding result is on record as “no binding”.
